Here are results for 2 substances from patent publication US8137991B2, “Methods of reducing angiogenesis of age-related macular degeneration (AMD) or choroidal neovascularization by an anti-carboxyetheylpyrrole (CFP) antibody” (The Cleveland Clinic Foundation, priority 2006, dated 2012).

Assay [1] concerns chick chorioallantoic membrane (CAM). Kind of assay: Chick chorioallantoic membrane (CAM) angiogenesis assay. Type of assay: in vivo, chick (white Leghorn embryos). Particulars: for average skeletal density of CAM vessels: methylcellulose disc with 0.5 μg protein, 48 hours. The procedure:
The CAM assay was performed as described previously (Nguyen, M., et al. (1994) Microvasc Res 47, 31-40) with slight modifications. Fertilized 3-day old white Leghorn eggs (CWRU, Squire valley farms) were cracked, and embryos with the yolk intact were placed in 100 mm×20 mm glass bottom Petri dishes. Following incubation for 3 days at 37° C. in 3% CO2, a methylcellulose disc (Fisher Scientific, Fair Lawn, N.J.) containing CEP-HSA or CEP-dipeptide, was placed on the CAM of individual embryos. CAMs implanted with discs loaded with unmodified dipeptide, HSA, control buffer or with vascular endothelial growth factor (VEGF) were used as negative and positive controls respectively. After 48 hours of incubation, India ink was injected into the vascular system for better visualization of the vessels by a stereomicroscope. Images were captured with a Panasonic CCD camera. Samples were always compared on the same CAM to avoid egg-to-egg variability. For quantitative analysis of vessel density and leakage, CAM images were batch processed using customized macros generated in Image-Pro Plus 5.0 (Media Cybernetics, Silver Spring, Md.). Briefly, a region of interest (ROI) was traced around grafted tissue in each image, each image was then cropped to its ROI, converted to grayscale, and processed using a large spectral filter to enhance the appearance of vasculature whilst omitting presence of larger vessels (determined by filter width). For skeletal density and vessel leakage measurements images were skeletonized using morphological filters (pixels representing branch points were excluded to divide vasculature into distinct vessel segments). Lengths of skeletal segments larger than 5 pixels (delineating vessels) were summed and divided by total graft area for skeletal density. Conversely, skeletal segments smaller than 5 pixels were summed for vessel leakage measurement.
The potential consequence of CEP modified human serum albumin (CEP-HSA) on angiogenesis was examined using the chick chorioallantoic membrane (CAM) assay. The angiogenic response to methylcellulose discs containing 0.5 μg (n=4), 1 μg (n=3), and 10 μg (n=4) of CEP-HSA or unmodified HSA (n=8) was analyzed. The protein preparations were analyzed for endotoxin and determined to be free of contamination. Representative results from these CAM assays are depicted in FIGS. 1a-1d. […] The average skeletal density of CAM vessels with 0.5 μg of CEP-HSA was ˜3.1.

Assay [2] deals with rat cornea (limbal blood vessels). As to the kind of experiment: Rat corneal micropocket assay, angiogenic response to implanted pellets. Particulars: pellet 1 mm from limbus, CEP-HSA 1 μg; for growth of limbal blood vessels towards the pellet: CEP-dipeptide 37 ng, HSA 1 μg, dipeptide 41 ng. Type of assay: in vivo, Sprague-Dawley rats. Here is the method: Hydron/sucralfate pellets containing unmodified or CEP modified HSA or dipeptide with or without neutralizing antibodies (monoclonal mouse anti-human VEGF, 1.5 μg, R&D systems (MAB293) or monoclonal anti-CEP antibody (Gu, X., et al. (2003) J. Biol. Chem.), 4 μg) were inserted into corneal micropockets (1 mm from the limbus) of Sprague-Dawley rats. Control mouse IgM, 4 μg (eBioscience, cat. #14-4752) and mouse IgG, 1.5 μg (Southern Biotechnology Inc., cat. #0104-01) antibodies were used in control pellets for comparison with anti-CEP and anti-VEGF antibodies respectively. Corneas were examined daily with the aid of a surgical microscope to monitor angiogenic responses to CEP modified peptide or proteins. To photograph the angiogenic response, animals were perfused with India ink to label the vessels, and following enucleation and fixation, the corneas were excised, flattened and photographed. A positive neovascularization response was recorded only if sustained directional in-growth of capillary sprouts and hairpin loops toward the pellet was observed. A negative response was recorded when either no growth is observed or only an occasional sprout or hairpin loop showing no evidence of sustained growth was detected. All responses were compared to a negative control (pellet and pellet containing buffer) and positive control of VEGF. For neutralization studies, responses were compared to a negative control of non-specific mouse immunoglobulin (IgM) described above. Angiogenic response was analyzed for peak vascular extension and total skeletal (vascular) length using Image-Pro Plus 5.0 (Media Cybernetics, Silver Spring, Md.). Prior to performing vessel measurements images were processed using best-fit equalization filters, spectral filters, and large pixel-width background removal filters to enhance vasculature and eliminate image artifacts. […] The resulting image, a single segmented object representing the overall dimensions of the vascular bed, was analyzed for maximum box-width, i.e. extent of vessel penetration. […]

Assay [3] has as its system ARPE-19 cells. As to the kind of experiment: VEGF secretion assay (ELISA) in retinal pigment epithelial cells. Type of assay: cell-based, Human. Particulars: 0.1-10 μM, ARPE19 cells, 18 hours. Here is the method:
Human retinal pigment epithelium (ARPE-19) cells were cultured in DMEM/F-12 medium with 10% fetal bovine serum, 100 U/ml penicillin, and 100 μg/ml streptomycin. The medium was changed every four days and all studies were performed on confluent cells. Endotoxin free media and serum were used. Confluent cultures in 24 well plates were starved for three days with serum free medium before incubating with CEP-Dipeptide or CEP-HSA (0.1-0.10 μM) and unmodified dipeptide or HSA (as controls). The CEP-dipeptide, CEP-HSA and controls were quantified by amino acid analysis (Crabb, J. W., et al. (1997) Amino Acid Analysis (John Wiley and Sons, Inc.)). Supernatant media was collected to measure VEGF secretion using an enzyme-linked immunosorbent assay (ELISA) according to the manufacturer's protocol (Research Diagnostics, Flanders, N.J.). […]
Another type of oxidized protein modification, namely advanced glycation end products (AGEs), stimulate angiogenesis in vivo (Okamoto, T., et al. (2002) Microvasc Res 63, 186-95) and induce VEGF secretion in vitro (Hirata, C., et al. (1997) Biochem Biophys Res Commun 236, 712-5; Hoffmann, S., et al. (2000) Invest Opthalmol Vis Sci 41, 2389-93). To explore whether CEP adducts influence VEGF secretion in vitro, human retinal pigment epithelial (RPE) cells were treated with CEP-dipeptide (0.1-10 μM) and VEGF protein quantified in the growth media by ELISA.
For orientation: In an ELISA, binding on a coated surface is turned into a signal by an enzyme label.

Turning to “CEP-HSA: human serum albumin chemically modified with 2-(ω-carboxyethyl)pyrrole by Paal-Knorr condensation with DOHA”, the “angiogenic response in CAM” value in assay [1] (CEP-HSA 161 ng (2.4 pmol)) is listed as “maximal response”; in assay [1] (CEP-HSA 0.5 μg (FIG. 1b), India ink perfusion) it was “induced sprouting of new blood vessels”. Also, in assay [1], the “average skeletal density of CAM vessels” value is listed as approximately 3.1. Also, in assay [2] (day 7, CEP-dipeptide 37 ng (FIG. 2g)), the “increase in peak vessel extension compared with unmodified parent molecule” value is reported as approximately 23 fold. In addition, the “growth of limbal blood vessels towards the pellet” value in assay [2] was “stimulated the growth of limbal blood vessels towards the pellet”. Further, the “VEGF in the growth media (secretion) relative to unmodified control or media alone” value in assay [3] was “no increase in VEGF secretion”.

For the substance “HSA: unmodified human serum albumin, negative control”, the “angiogenic response in CAM” value in assay [1] (HSA at doses up to 0.5 μg) is given as “minimal or absent response”. Also, the “average skeletal density of CAM vessels” value in assay [1] is recorded as approximately 2.5. The “growth of limbal blood vessels towards the pellet” value in assay [2] is “did not induce this effect”.
